According to ChEMBL document CHEMBL5338787, “Discovery of Novel Bruton's Tyrosine Kinase PROTACs with Enhanced Selectivity and Cellular Efficacy” (J Med Chem, 2023):
Active and inactive are the calls of the source. No cut-off for these calls is given here.

Assays:
Details in all cases: dose 0.15-3000 nM
[1] = biological target: T1, Tyrosine-protein kinase BTK (Homo sapiens, UniProt Q06187); assay: Inhibition of BCR signalling in human TMD8 cells assessed as activation of ERK of measured at 0.15 to 3000 nM after 48 hrs stimulated with goat F(ab') 2 anti-human IgM for 10 mins before harvesting measured by Western blot analysis
[2] = biological target: T1, Tyrosine-protein kinase BTK; assay: Inhibition of BCR signalling in human MINO cells assessed as activation of ERK of measured at 0.15 to 3000 nM after 48 hrs stimulated with goat F(ab') 2 anti-human IgM for 10 mins before harvesting measured by Western blot analysis
[3] = biological target: T1, Tyrosine-protein kinase BTK; assay: Inhibition of BCR signalling in human TMD8 cells assessed as downregulation of phosphorylated BTK measured at 0.15 to 3000 nM after 48 hrs stimulated with goat F(ab') 2 anti-human IgM for 10 mins before harvesting measured by Western blot analysis
[4] = biological target: T1, Tyrosine-protein kinase BTK; assay: Inhibition of BCR signalling in human TMD8 cells assessed as downregulation of phosphorylated AKT measured at 0.15 to 3000 nM after 48 hrs stimulated with goat F(ab') 2 anti-human IgM for 10 mins before harvesting measured by Western blot analysis
[5] = biological target: T1, Tyrosine-protein kinase BTK; assay: Inhibition of BCR signalling in human MINO cells assessed as downregulation of phosphorylated BTK measured at 0.15 to 3000 nM after 48 hrs stimulated with goat F(ab') 2 anti-human IgM for 10 mins before harvesting measured by Western blot analysis
[6] = biological target: T1, Tyrosine-protein kinase BTK; assay: Inhibition of BCR signalling in human MINO cells assessed as downregulation of phosphorylated AKT measured at 0.15 to 3000 nM after 48 hrs stimulated with goat F(ab') 2 anti-human IgM for 10 mins before harvesting measured by Western blot analysis
[7] = biological target: T1, Tyrosine-protein kinase BTK; assay: Inhibition of BCR signalling in human TMD8 cells assessed as downregulation of phosphorylated PLCgamma2 measured at 0.15 to 3000 nM after 48 hrs stimulated with goat F(ab') 2 anti-human IgM for 10 mins before harvesting measured by Western blot analysis
[8] = biological target: T1, Tyrosine-protein kinase BTK; assay: Inhibition of BCR signalling in human TMD8 cells assessed as downregulation of phosphorylated NF-kappaB measured at 0.15 to 3000 nM after 48 hrs stimulated with goat F(ab') 2 anti-human IgM for 10 mins before harvesting measured by Western blot analysis
[9] = biological target: T1, Tyrosine-protein kinase BTK; assay: Inhibition of BCR signalling in human MINO cells assessed as downregulation of phosphorylated PLCgamma2 measured at 0.15 to 3000 nM after 48 hrs stimulated with goat F(ab') 2 anti-human IgM for 10 mins before harvesting measured by Western blot analysis
[10] = biological target: T1, Tyrosine-protein kinase BTK; assay: Inhibition of BCR signalling in human MINO cells assessed as downregulation of phosphorylated NF-kappaB measured at 0.15 to 3000 nM after 48 hrs stimulated with goat F(ab') 2 anti-human IgM for 10 mins before harvesting measured by Western blot analysis
[11] = biological target: T1, Tyrosine-protein kinase BTK; assay: Inhibition of BCR signalling in human TMD8 cells assessed as downregulation of total protein level AKT of measured at 0.15 to 3000 nM after 48 hrs stimulated with goat F(ab') 2 anti-human IgM for 10 mins before harvesting measured by Western blot analysis
[12] = biological target: T1, Tyrosine-protein kinase BTK; assay: Inhibition of BCR signalling in human MINO cells assessed as downregulation of total protein level AKT of measured at 0.15 to 3000 nM after 48 hrs stimulated with goat F(ab') 2 anti-human IgM for 10 mins before harvesting measured by Western blot analysis
[13] = biological target: T1, Tyrosine-protein kinase BTK; assay: Inhibition of BCR signalling in human TMD8 cells assessed as downregulation of total protein level PLCgamma2 of measured at 0.15 to 3000 nM after 48 hrs stimulated with goat F(ab') 2 anti-human IgM for 10 mins before harvesting measured by Western blot analysis
[14] = biological target: T1, Tyrosine-protein kinase BTK; assay: Inhibition of BCR signalling in human TMD8 cells assessed as downregulation of total protein level NF-KappaB of measured at 0.15 to 3000 nM after 48 hrs stimulated with goat F(ab') 2 anti-human IgM for 10 mins before harvesting measured by Western blot analysis
[15] = biological target: T1, Tyrosine-protein kinase BTK; assay: Inhibition of BCR signalling in human MINO cells assessed as downregulation of total protein level PLCgamma2 of measured at 0.15 to 3000 nM after 48 hrs stimulated with goat F(ab') 2 anti-human IgM for 10 mins before harvesting measured by Western blot analysis
[16] = biological target: T1, Tyrosine-protein kinase BTK; assay: Inhibition of BCR signalling in human MINO cells assessed as downregulation of total protein level NF-KappaB of measured at 0.15 to 3000 nM after 48 hrs stimulated with goat F(ab') 2 anti-human IgM for 10 mins before harvesting measured by Western blot analysis

- inhibition [1]: Active
- inhibition [2]: inactive
- inhibition [3]: Active
- inhibition [4]: Active
- inhibition [5]: Active
- inhibition [6]: Active
- inhibition [7]: Active
- inhibition [8]: Active
- inhibition [9]: Active
- inhibition [10]: Active
- inhibition [11]: Active
- inhibition [12]: Active
- inhibition [13]: Active
- inhibition [14]: Active
- inhibition [15]: Active
- inhibition [16]: Active
SMILES: C[C@H]1CN(C(=O)CNc2cccc3c2C(=O)N(C2CCC(=O)NC2=O)C3=O)CCN1c1ccc(Nc2cc(-c3ccnc(N4CCn5c(cc6c5CC(C)(C)C6)C4=O)c3CO)cn(C)c2=O)nc1 (stereo partly specified)
